Results taken from ChEMBL document CHEMBL1128900, “Non-peptidic inhibitors of neutral endopeptidase 24.11 1. Discovery and optimization of potency” (Bioorg Med Chem Lett, 1995).
pIC50: −log10 of the molar value.

Biological target: T1, Neprilysin (Rattus norvegicus, UniProt P07861)
T1 sequence (P07861 whole entry): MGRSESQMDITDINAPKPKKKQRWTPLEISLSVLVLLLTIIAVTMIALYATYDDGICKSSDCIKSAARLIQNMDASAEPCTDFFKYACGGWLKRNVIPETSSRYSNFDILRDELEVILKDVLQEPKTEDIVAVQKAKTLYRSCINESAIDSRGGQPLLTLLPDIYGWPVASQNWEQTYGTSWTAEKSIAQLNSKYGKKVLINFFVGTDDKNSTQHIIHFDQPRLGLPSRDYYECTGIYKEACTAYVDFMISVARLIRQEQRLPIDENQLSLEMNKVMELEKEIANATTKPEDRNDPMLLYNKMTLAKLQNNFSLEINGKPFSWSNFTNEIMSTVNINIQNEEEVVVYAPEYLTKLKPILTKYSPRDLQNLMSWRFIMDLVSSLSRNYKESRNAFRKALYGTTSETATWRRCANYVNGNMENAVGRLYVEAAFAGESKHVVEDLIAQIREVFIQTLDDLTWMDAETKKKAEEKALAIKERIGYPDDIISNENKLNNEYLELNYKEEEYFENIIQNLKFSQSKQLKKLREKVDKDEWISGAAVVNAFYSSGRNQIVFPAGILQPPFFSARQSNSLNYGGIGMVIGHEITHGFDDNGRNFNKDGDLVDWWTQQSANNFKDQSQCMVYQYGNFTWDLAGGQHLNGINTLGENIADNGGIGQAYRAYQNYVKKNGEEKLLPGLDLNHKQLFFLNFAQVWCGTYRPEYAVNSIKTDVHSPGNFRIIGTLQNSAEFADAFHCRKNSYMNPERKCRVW
Assay: In vitro inhibitory activity against neutral endopeptidase (NEP)

SMILES | pIC50
O=C(O)[C@H](Cc1ccc(-c2ccccc2)cc1)NCP(=O)(O)O | 7.82
O=C(O)[C@@H](Cc1ccc(-c2ccccc2)cc1)NCP(=O)(O)O | < 6.00
